{"source": "paper PMC9907720", "about": "(Antiviral research, 2022)", "system": "AD169 virus", "test": "Time-of-addition assay", "settings": "10 μM added at −60, 0, 15, 30, 60, 90 mpi; NHDF; anti-IE1 at 24 hours"}
{"compound": "Cc1nc(Nc2ccc(NC(=O)c3ccco3)cc2)cc(N2CCCC2)n1", "note": "[MBX-4992]", "values": [{"measurement": "time of addition at which infection is prevented", "result": "most effective at preventing infection when introduced between −60 min prior to infection to 30 mpi"}]}
